# Bioassay records as filed in PubChem.
# HEK293 tox: cytotoxicity counter-screen for GLP-1 receptor inverse agonists. HEK293 cAMP-luciferase reporter cells, luminescence, 24 h. Potency, µM (titrated, usually from 38.3 µM), inactives show at the highest dose activity change, negative = inhibition, usual class: inhibitors. 410,000 compounds, 0.13% hits. AID 624418;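 also: loss of luciferase light is scored as toxicity; potency is read from the fitted curve at half-maximal effect; % is scaled to controls: 0 for no effect and ±100 for the full control effect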
#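 MLSMR compounds, 24 hr on cells at 37 deg C/5% CO2; luminescence after luciferase reagent (12 min RT). Inhibition counted as the undesired cytotoxic outcome.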
# Pin1 inhibitor: inhibitors of human Pin1 | 390,000 compounds, 0.009% hits | Q13526 | Pin1 FP peptide displacement, HiFluor488, 10 min | Potency, µM (series often up to 115 µM), for inactives: top-dose activity, negative = inhibition, most hits filed as inhibitors | AID 504891; active = well fitted inhibition curve with a large enough effect in the polarisation, with a control signal flat, not every such curve was filed as active; inconclusive = small, poorly fitted or top-dose-only effect, or effect the other way, or a change in a side signal; inactive = no such curve, though single readings can be large or run the other way; the % refers to the polarisation; also: potency is read from the fitted curve at half-maximal effect; % is scaled to controls: 0 for no effect and ±100 for the full control effect
# miR-21 reporter: miR-21 reporter, rising signal | HeLa miR-21 FLuc reporter, luciferase, 48 h | Potency, µM (doses to about 38.3 µM), inactives show at the top dose reporter change, positive = more light | 340,000 tested, under 10 active | AID 2288; active = well fitted rising curve with a large enough effect; inconclusive = small, poorly fitted or top-dose-only effect; inactive = no such curve, though single readings can be large or run the other way;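 note: % of control where 0% means no effect; miR-21 action dims this reporter so a rising signal means less miR-21 action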
#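 HeLa cells endogenously expressing miR-21, stably carrying CMV-driven firefly luciferase with a downstream miR-21 binding site, 2000 cells/well. Titrations up to approximately 40 uM, 48 hours; luciferase luminescence read.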
# GLP1R ag: agonists of human GLP-1 receptor; P43220; HEK293 GLP-1R CRE-luciferase, luminescence, 4-6 h; cells express a hypersensitive GLP-1R form; Potency, µM (top dose mostly 45.6 µM), inactives show at the top dose activation, actives largely listed as activators; 380,000 compounds, 0.007% hits; AID 624172; also: potency is read from the fitted curve at half-maximal effect; % of control where 0% means no effect
# GLP1R inv ag: GLP-1 receptor (human) inverse agonism; P43220; HEK293 GLP-1R CRE-luciferase, luminescence, 24 h; GLP-1R form is constitutively active; Potency, µM (top dose mostly 38.3 µM), for the others: top-dose activity change, negative = inhibition, actives largely listed as inhibitors; 410,000 compounds, 1.6% hits; AID 624417; also: potency is read from the fitted curve at half-maximal effect; % is scaled to controls: 0 for no effect and ±100 for the full control effect; nearly all actives have a fitted effect of over 55% in size
#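 Luminescence readout: a drop in cAMP-driven luciferase signal flags inverse agonism at a constitutively active GLP-1R stably expressed in HEK293. Compound exposure lasted 24 hr at 37 deg C, 5% CO2.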
# PTHR1 ag: activates the human parathyroid hormone receptor PTHR1; Q03431; HEK293 GP2 PTHR1 cells, GloSensor cAMP luminescence, 1 h; Potency, µM (top dose mostly 115 µM), for inactives: top-dose activation, actives largely listed as activators; 410,000 compounds, 0.075% hits; AID 743266; also: potency is read from the fitted curve at half-maximal effect; nearly all actives have a fitted effect of over 55% in size
#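 HEK-293-derived GP2 cells expressing PTHR1 and a GloSensor cAMP reporter, 3,000/well, plated overnight, given luciferin plus IBMX (each 0.5 mM as added) for 1 h at 37 °C, then compound for 1 h at 37 °C. Luminescence was read after 15 min at room temperature.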
# The depositor's hits bear a star; i = inactive; ? = inconclusive; . = no result; ! = not confirmed by another sample. Rows were chosen to be rich in hits. Some 1.7% of all compounds tested hit in one or more screens of this group. Unless noted, calls follow the shape of the dose curve; as a rule, active = well fitted curve in the direction sought with a large enough effect; inconclusive = small, poorly fitted or top-dose-only effect, or another doubt; inactive = no such curve, though single readings can be large; an effect the other way counts as inactive or inconclusive.
# Values run as follows: HEK293 tox	Pin1 inhibitor	miR-21 reporter	GLP1R ag	GLP1R inv ag	PTHR1 ag
1	Cc1ccc(N(CCC(=O)O)S(=O)(=O)c2ccccc2)cc1
  69.0%	1.4%	-2.4%	7.6%	21.3%	i
2	CCOc1ccccc1NC(=O)CCN(c1ccc(C)cc1)S(=O)(=O)c1ccccc1
  12.1%	6.6%	-9.9%	5.4%	11.2µM*	i
3	COc1ccc(NC(=O)CSc2nnc(-c3ccccc3Cl)n2Cc2ccco2)c(OC)c1
  -26.5%	0.0%	3.4%	-2.7%	7.08µM*	i
4	COc1ccc(NC(=O)CSc2nnc(-c3ccccc3)n2Cc2ccco2)c(OC)c1
  -1.5%	-13.6%	0.8%	2.0%	-17.7%	i
5	CC1=C(c2ccc(NN=C(C#N)C#N)cc2)NNC(=O)C1
  .	.	.	-11.8%	.	.
6	Cc1ccc(C)n1-c1nn(S(=O)(=O)c2ccccc2)c2cccc(F)c12
  22.6%	14.3%	-5.3%	12.2%	?	i
7	COc1ccc(S(=O)(=O)n2nc(-n3c(C)ccc3C)c3c(F)cccc32)cc1OC
  27.8%	23.8%	5.7%	-0.5%	10µM*	-46.7%
8	COc1cccc(NC(=O)Cn2cnc3c(nc4n3CCCCC4)c2=O)c1
  -4.0%	-0.3%	-1.4%	.	4.2%	i
9	O=C(O)c1cccc(Nc2ncnc3ccc(Br)cc23)c1
  16.3%	-4.2%	3.6%	0.4%	54.4%	8.91µM*!
10	COC(=O)N/N=C/c1cc(Cl)c(OCc2ccccc2F)c(OC)c1
  -15.8%	-0.8%	-0.4%	9.0%	10µM*	-8.2%

# (listing goes on)
# Values run as follows: HEK293 tox	Pin1 inhibitor	miR-21 reporter	GLP1R ag	GLP1R inv ag	PTHR1 ag
11	O=C(c1ccccc1F)N(Cc1nc2ccccc2c(=O)[nH]1)C1CCCC1
  ?	8.4%	2.5%	-3.5%	10µM*	-6.1%
12	C[C@@H]1CN([C@H](C)CO)C(=O)c2cc(NC(=O)Nc3ccc(C(F)(F)F)cc3)ccc2O[C@H]1CN(C)S(=O)(=O)c1ccc(Cl)cc1
  -28.0%	38.0%	.	-2.6%	3.16µM*	-16.6%
13	C[C@@H]1CN([C@@H](C)CO)C(=O)Cc2cc(NC(=O)Nc3ccc(C(F)(F)F)cc3)ccc2O[C@@H]1CN(C)S(=O)(=O)c1ccc(Cl)cc1
  ?	21.6%	.	-5.2%	5.62µM*	-14.6%
14	C[C@H](CO)N1C[C@H](C)[C@H](CN(C)S(=O)(=O)c2cn(C)cn2)Oc2ccc(NC(=O)Nc3ccc(C(F)(F)F)cc3)cc2CC1=O
  -14.3%	4.2%	.	-1.2%	?	-8.0%
15	C[C@H](CO)N1C[C@H](C)[C@@H](CN(C)S(=O)(=O)c2ccc(F)cc2)Oc2ccc(NC(=O)Nc3ccc(C(F)(F)F)cc3)cc2C1=O
  -27.0%	2.1%	.	-4.2%	?	i
16	CCOc1cc(CNC(=O)c2ccc3nc(C(C)C)oc3c2)cc(OCC)c1OCC
  5.7%	5.1%	-4.3%	.	13.1%	-7.0%
17	Cc1ccc(N(C)S(=O)(=O)c2cccc(C(=O)NC3CC(C)(C)NC(C)(C)C3)c2)cc1
  -2.1%	-0.8%	.	0.4%	11.2µM*	-9.2%
18	CC(NCC(=O)NC(=O)NC1CCCC1)c1ccc(Cl)cc1Cl (stereo not given)
  -6.7%	1.2%	.	8.3%	10µM*	i
19	CC1CCN(Cc2c(C(=O)N/N=C/c3cc(Br)ccc3O)nnn2-c2nonc2N)CC1
  123.9%	1.3%	?	-1.4%	3.98µM*	i
20	CC(C)c1c(C(=O)N/N=C/c2cccc3ccccc23)nnn1-c1nonc1N
  -20.0%	-1.0%	21.0%	-1.7%	6.31µM*	-38.8%

# Additional entries.
# Values run as follows: HEK293 tox	Pin1 inhibitor	miR-21 reporter	GLP1R ag	GLP1R inv ag	PTHR1 ag
21	COc1cc(-c2nc(-c3cccc(Cl)c3)c(-c3ccccc3)[nH]2)cc(OC)c1OC
  ?	-2.2%	?	.	3.55µM*	-25.2%
22	CC(C)N(Cc1nc(-c2ccc(Cl)cc2)no1)C(=O)/C=C/c1ccccc1
  -1.4%	3.3%	-10.4%	2.3%	11.2µM*	i
23	COc1cccc(NC(=O)c2cnn(-c3ccccc3)c2-n2cccc2)c1
  21.4%	?	0.6%	.	?	-88.6%
24	O=C(c1ccc(OC2CCN(CCc3ccccc3)CC2)cc1)N1CCCCC1CCCO (stereo not given)
  -9.8%	2.3%	-0.1%	-4.5%	11.2µM*	i
25	O=C(c1ccc(OC2CCN(CCc3ccccc3)CC2)cc1)N1CCCC(CCCO)C1 (stereo not given)
  -14.2%	-14.9%	2.8%	2.2%	11.2µM*	10.0%
26	COc1ccc([N+](=O)[O-])cc1NC(=S)NC(NC(=O)Cc1ccc(OC)c(OC)c1)C(Cl)(Cl)Cl (stereo not given)
  ?	3.2%	-2.5%	-5.0%	4.47µM*	?
27	COc1ccc([N+](=O)[O-])cc1NC(=S)NC(NC(C)=O)C(Cl)(Cl)Cl (stereo not given)
  2.0%	-0.1%	5.9%	-1.3%	?	i
28	Cc1ccc(C(=O)NCC2CCCN2S(=O)(=O)c2ccc(C)cc2)cc1 (stereo not given)
  -7.8%	1.8%	.	13.1%	?	-10.1%
29	CC(C)(C)c1ccc(C(=O)NCC2CCCN2S(=O)(=O)c2ccccc2)cc1 (stereo not given)
  -20.5%	19.8%	.	6.2%	5.01µM*	-11.2%
30	CC1(C)C(=O)N(OCc2ccccc2)C(C)(C)C(=O)N1OCc1ccccc1
  -4.2%	-1.5%	-0.1%	0.8%	10µM*	-29.2%

# Next structures
# Values run as follows: HEK293 tox	Pin1 inhibitor	miR-21 reporter	GLP1R ag	GLP1R inv ag	PTHR1 ag
31	CCOn1c(=O)c(=O)n(OCc2ccccc2)c2ccccc21
  -3.5%	0.7%	-10.0%	3.4%	0.5%	i
32	Cc1cc(O)c(Sc2ncn[nH]2)cc1NS(=O)(=O)c1ccc(Cl)cc1
  -22.4%	-5.6%	.	2.5%	-24.3%	-14.4%
33	O=S(=O)(Nc1cc(Sc2ncn[nH]2)c(O)c2ccccc12)c1ccccc1
  ?	44.7µM*	?	-10.4%	?	-70.4%
34	CN(/N=C/c1cc(Cl)cc(Cl)c1O)c1c(Cl)cccc1[N+](=O)[O-]
  -1.8%	-5.4%	-3.0%	8.7%	8.91µM*	-19.3%
35	CN1CCN(c2ccc(-c3cccc(NC(=O)COc4ccccc4)c3)nn2)CC1
  -9.7%	-0.4%	.	-3.3%	11.2µM*	-10.8%
36	COc1ccc(CCNC(=O)c2cc(S(=O)(=O)N(C)c3ccccc3)ccc2Cl)cc1
  -4.9%	?	17.1%	-4.2%	?	-15.2%
37	CCOc1ccc(N(C)S(=O)(=O)c2ccc(C)c(C(=O)NCCc3ccc(OC)cc3)c2)cc1
  -4.8%	7.8%	.	-2.0%	10µM*	-12.0%
38	CCOc1ccc(N(C)S(=O)(=O)c2ccc(C)c(C(=O)N3CCN(Cc4ccc5c(c4)OCO5)CC3)c2)cc1
  3.3%	9.8%	.	0.3%	11.2µM*	-33.6%
39	O=[S+]([O-])(c1ccc(N2CCOCC2)nc1)N1CCN([S+](=O)([O-])c2c(F)cccc2F)CC1
  .	-4.5%	.	.	.	.
